Values of other authors as cited in patent US9061040B2, “Combination therapy for breast cancer” (priority 2011, dated 2015).

Test system: cytotoxic lymphocytes and natural killer cells
Details: 200 μg selenium per day

[Se] [selenium]
increase in cytotoxic-lymphocyte-mediated tumor cytotoxicity: 118%
increase in natural-killer-cell activity: 82%
